Measured values published in patent publication US20050009103A1, “Methods of precise molecular-level determination of ligand-receptor interactions and designing selective drug compounds based on said interactions” (priority 2003, published 2005).

The chains behind the UniProt entries cited, without tags or fusion partners. Residues count along the entry.
UniProt P02716, 25-520 limits assumed, stated change not applied: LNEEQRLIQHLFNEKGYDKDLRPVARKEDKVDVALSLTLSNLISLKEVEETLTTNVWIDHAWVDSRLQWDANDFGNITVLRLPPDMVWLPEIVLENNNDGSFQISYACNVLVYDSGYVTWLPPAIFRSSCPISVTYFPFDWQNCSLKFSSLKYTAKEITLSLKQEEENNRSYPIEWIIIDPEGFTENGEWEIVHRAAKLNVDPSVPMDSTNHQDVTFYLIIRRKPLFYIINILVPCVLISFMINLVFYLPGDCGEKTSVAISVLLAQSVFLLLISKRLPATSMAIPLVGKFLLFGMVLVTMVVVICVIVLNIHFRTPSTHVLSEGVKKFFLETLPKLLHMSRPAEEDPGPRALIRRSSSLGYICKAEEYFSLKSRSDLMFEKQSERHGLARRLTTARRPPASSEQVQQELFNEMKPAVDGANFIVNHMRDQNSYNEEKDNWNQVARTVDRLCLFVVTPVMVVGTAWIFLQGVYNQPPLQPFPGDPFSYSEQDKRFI
UniProt P04760, 23-519 limits assumed, stated change not applied: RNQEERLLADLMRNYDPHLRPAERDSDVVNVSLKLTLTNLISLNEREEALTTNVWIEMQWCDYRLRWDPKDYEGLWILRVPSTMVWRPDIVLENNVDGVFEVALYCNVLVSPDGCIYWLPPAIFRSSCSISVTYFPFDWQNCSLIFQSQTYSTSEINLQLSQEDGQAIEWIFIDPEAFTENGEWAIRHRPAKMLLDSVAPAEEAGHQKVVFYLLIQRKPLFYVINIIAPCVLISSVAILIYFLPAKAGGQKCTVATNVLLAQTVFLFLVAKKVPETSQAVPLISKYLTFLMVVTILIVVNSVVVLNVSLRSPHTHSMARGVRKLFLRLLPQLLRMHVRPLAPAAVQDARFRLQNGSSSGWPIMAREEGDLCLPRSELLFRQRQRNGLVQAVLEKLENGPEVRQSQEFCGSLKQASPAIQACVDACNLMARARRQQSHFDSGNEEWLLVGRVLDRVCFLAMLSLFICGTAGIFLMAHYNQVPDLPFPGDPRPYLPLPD
UniProt P09690, 24-501 L285S: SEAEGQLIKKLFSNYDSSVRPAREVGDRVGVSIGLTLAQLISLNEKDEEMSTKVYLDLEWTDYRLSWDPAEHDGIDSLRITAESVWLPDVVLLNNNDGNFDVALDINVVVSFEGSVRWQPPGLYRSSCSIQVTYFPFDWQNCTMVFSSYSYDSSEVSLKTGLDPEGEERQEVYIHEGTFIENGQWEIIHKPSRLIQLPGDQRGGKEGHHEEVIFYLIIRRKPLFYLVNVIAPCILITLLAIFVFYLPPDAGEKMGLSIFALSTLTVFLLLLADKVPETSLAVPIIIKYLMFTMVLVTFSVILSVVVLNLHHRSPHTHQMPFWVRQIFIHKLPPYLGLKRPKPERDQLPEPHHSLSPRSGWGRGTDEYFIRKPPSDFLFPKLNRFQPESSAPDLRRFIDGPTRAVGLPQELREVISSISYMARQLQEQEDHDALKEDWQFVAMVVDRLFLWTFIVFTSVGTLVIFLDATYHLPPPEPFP

Columns and labels:
[1] = target: T1, Mouse muscle embryonic nAChR, 5-F-Trp at α149, Leu9′Ser mutation in M2 of the β subunit (Mus musculus, UniProt P02716+P04756+P04760); experiment: Two-electrode voltage clamp of Xenopus oocytes expressing nAChR, F-Trp at α149; format: cell-based; details: read-out: EC50, F-Trp at α149, ± standard error of the mean
T1 construct: Mouse muscle embryonic nAChR in the pAMV vector was used
Method: (§1) Unnatural amino acids were incorporated into the nAChR using in vivo nonsense suppression methods, and mutant receptors were evaluated electrophysiologically (Dougherty, D. A. (2000) Curr. Opin. Chem. Biol. 4:645-652).
(§2) In studies of weak agonists and/or receptors with diminished binding capability, it is necessary to introduce another mutation that independently decreases EC50. This was accomplished via a Leu-to-Ser mutation in the β subunit at a site known as 9′ in the M2 transmembrane region of the receptor. This M2-β9′ site is almost 50 Å from the binding site, and previous work has shown that a Leu9′Ser mutation lowers the EC50 by a factor of roughly 10 without altering trends in EC50 values (Beene, D. L., et al. (2002) Biochem. 41:10262-9; and Kearney, P. C., et al. (1996) Mil. Pharmacol. 50:1401-1412). […] It is important to note that the EC50 value is not a binding constant, but a composite of equilibria for both binding and gating.
(§3) Stage VI oocytes of Xenopus laevis were employed. Oocyte recordings were made 24 to 48 h post injection in two-electrode voltage clamp mode using the OpusXpress™ 6000A (Axon Instruments, Union City, Calif.). Oocytes were superfused with Ca^2+-free ND96 solution at flow rates of 1 ml/min, 4 ml/min during drug application and 3 ml/min during wash. Holding potentials were −60 mV. Data were sampled at 125 Hz and filtered at 50 Hz. […]

[2] = target: T2, Mouse muscle embryonic nAChR, 5,6,7-F3-Trp at α149, Leu9′Ser mutation in M2 of the β subunit (Mus musculus, UniProt P02716+P04756+P04760); experiment: Two-electrode voltage clamp of Xenopus oocytes expressing nAChR, F3-Trp at α149; format: cell-based; details: read-out: EC50, F3-Trp at α149, ± standard error of the mean
T2 construct: Mouse muscle embryonic nAChR in the pAMV vector was used
Method: as §1, §2, §3

[3] = target: T3, Mouse muscle embryonic nAChR, 5,7-F2-Trp at α149, Leu9′Ser mutation in M2 of the β subunit (Mus musculus, UniProt P02716+P04756+P04760); experiment: Two-electrode voltage clamp of Xenopus oocytes expressing nAChR, F2-Trp at α149; format: cell-based; details: read-out: EC50, F2-Trp at α149, ± standard error of the mean
T3 construct: Mouse muscle embryonic nAChR in the pAMV vector was used
Method: as §1, §2, §3

[4] = target: Mouse muscle embryonic nAChR, Thr α150, Leu9′Ser mutation in M2 of the β subunit (Mus musculus, UniProt P02716+P04756+P04760+P09690, L285S); experiment: cell-based
Method: as §1, §2
(§4) To evaluate this possibility, the backbone amide at this position was converted to an ester by replacing Thr α150 with the analog α-hydroxy threonine (Tah) using the nonsense suppression methodology (FIG. 9a). Converting an amide carbonyl to an ester carbonyl weakens the hydrogen bonding ability of the oxygen, an effect that has been estimated to be worth ˜[…] (Koh, J. T., et al. (1997) Biochem. 36:11314-22). […]

[5] = target: T4, Mouse muscle embryonic nAChR, Trp α149, Leu9′Ser mutation in M2 of the β subunit (Mus musculus, UniProt P02716+P04756+P04760); experiment: Two-electrode voltage clamp of Xenopus oocytes expressing nAChR, Trp at α149 (wild type rescue by nonsense suppression); format: cell-based
T4 construct: expressed in transfected cells; host or cells: Xenopus laevis oocytes (mRNA and suppressor tRNA injected)
Method: as §1, §2, §3

[6] = target: T5, Mouse muscle embryonic nAChR, Tah α150 (ester carbonyl of Trp α149), Leu9′Ser mutation in M2 of the β subunit (Mus musculus, UniProt P02716+P04756+P04760); format: cell-based; details: read-out: EC50, Tah at α150, ± standard error of the mean, backbone ester
T5 construct: other: ± standard error of the mean; backbone ester; β Leu9′Ser; Mouse muscle embryonic nAChR in the pAMV vector was used
Method: as §1, §2, §4

SMILES: Clc1ccc(C2CC3CCC2N3)cn1 (racemic) [Epi, epibatidine]
- EC50 [1]: 3.5 ± 0.1 µM
- EC50 [2]: 15 ± 1 µM
- EC50 [3]: 7.5 ± 0.4 µM
- EC50 [4]: 0.6 ± 0.04 µM
- EC50 [5]: 0.72 ± 0.08 µM
- EC50 [6]: 2.2 ± 0.2 µM
